According to paper PMC4188581, “Break CDK2/Cyclin E1 Interface Allosterically with Small Peptides” (PLoS ONE, 2014):

Legend:
Experiment in all cases: SPR
[1] = target: LAALS peptide
[2] = target: TAALS peptide
[3] = target: DAALT peptide
[4] = target: YAALQ peptide

## CDK2 (from UniProt P24941)
[1]
  Kd: 8 µM
[2]
  Kd: 1.4 µM
[3]
  Kd: 0.47 µM
[4]
  Kd: 98 µM
